Paper PMC3542791 (The Journal of Cell Biology, 2013)

Assays:
[1] = biological target: T1, Ndc80p-6xHis/Nuf2p-EGFP subcomplex (budding yeast, UniProt P40460;P33895); test: SEC
T1 sequence 1: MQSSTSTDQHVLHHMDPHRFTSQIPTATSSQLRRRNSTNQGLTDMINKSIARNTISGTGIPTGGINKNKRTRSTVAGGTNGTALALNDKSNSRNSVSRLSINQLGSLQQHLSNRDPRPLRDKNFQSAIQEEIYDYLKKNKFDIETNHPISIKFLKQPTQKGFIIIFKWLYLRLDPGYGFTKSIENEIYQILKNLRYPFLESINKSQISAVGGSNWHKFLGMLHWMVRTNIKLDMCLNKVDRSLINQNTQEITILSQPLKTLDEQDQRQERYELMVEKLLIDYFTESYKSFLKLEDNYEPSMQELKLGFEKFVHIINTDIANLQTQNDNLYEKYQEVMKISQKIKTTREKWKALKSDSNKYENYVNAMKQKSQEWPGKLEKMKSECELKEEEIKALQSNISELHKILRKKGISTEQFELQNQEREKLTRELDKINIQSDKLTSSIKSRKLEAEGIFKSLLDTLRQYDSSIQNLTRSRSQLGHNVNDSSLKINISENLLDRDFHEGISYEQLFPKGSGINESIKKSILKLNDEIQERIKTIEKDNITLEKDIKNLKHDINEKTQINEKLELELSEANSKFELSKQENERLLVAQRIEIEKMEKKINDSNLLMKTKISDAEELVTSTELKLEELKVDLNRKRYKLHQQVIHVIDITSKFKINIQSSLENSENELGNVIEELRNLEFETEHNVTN
T1 sequence 2: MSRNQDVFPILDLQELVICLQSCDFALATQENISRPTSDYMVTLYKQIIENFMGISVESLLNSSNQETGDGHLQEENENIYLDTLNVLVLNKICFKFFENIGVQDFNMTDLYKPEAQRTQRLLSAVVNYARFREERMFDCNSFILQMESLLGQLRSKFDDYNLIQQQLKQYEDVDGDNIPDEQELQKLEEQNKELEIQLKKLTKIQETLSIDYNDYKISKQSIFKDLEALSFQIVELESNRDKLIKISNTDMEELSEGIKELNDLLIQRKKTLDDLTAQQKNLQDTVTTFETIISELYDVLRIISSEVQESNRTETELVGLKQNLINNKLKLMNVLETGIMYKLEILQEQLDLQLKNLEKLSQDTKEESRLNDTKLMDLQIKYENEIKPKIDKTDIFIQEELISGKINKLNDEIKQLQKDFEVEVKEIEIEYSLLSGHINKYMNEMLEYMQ

[2] = biological target: T2, Ndc80p Δ256-273-6xHis/Nuf2p-EGFP subcomplex (budding yeast, UniProt P40460;P33895, Δ256-273); test: SEC
T2 sequence 1: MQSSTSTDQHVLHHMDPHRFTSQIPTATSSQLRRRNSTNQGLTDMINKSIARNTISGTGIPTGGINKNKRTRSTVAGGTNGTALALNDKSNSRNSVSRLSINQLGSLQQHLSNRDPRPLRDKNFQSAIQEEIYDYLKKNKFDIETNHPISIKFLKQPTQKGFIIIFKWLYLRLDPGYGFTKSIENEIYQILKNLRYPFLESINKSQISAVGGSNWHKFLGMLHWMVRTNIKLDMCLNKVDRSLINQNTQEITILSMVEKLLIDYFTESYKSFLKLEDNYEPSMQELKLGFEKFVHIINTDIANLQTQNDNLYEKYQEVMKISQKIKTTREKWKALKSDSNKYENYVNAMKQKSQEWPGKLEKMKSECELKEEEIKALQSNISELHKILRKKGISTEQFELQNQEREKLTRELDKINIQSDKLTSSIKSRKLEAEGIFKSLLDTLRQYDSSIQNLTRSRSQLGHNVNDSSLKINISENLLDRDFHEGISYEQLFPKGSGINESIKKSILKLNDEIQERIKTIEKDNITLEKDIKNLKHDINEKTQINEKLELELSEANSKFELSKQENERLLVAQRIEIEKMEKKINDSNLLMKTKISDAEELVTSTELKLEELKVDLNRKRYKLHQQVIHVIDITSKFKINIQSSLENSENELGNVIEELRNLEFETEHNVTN
T2 sequence 2: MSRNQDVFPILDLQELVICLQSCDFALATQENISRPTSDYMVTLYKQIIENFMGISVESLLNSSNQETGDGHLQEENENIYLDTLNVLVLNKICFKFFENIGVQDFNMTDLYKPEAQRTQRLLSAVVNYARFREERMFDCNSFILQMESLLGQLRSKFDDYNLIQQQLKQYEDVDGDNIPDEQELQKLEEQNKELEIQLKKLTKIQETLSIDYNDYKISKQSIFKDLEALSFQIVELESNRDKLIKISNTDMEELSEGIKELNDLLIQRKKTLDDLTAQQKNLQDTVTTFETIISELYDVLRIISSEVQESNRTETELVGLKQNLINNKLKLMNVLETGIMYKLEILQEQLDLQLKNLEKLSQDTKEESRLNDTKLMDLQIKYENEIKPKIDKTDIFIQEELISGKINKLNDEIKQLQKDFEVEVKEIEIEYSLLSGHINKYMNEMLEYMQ

B1: Spc24p-6xHis/Spc25p subcomplex (complex)
chain 1: MSQKDNLLDNPVEFLKEVRESFDIQQDVDAMKRIRHDLDVIKEESEARISKEHSKVSESNKKLNAERINVAKLEGDLEYTNEESNEFGSKDELVKLLKDLDGLERNIVSLRSELDEKMKLYLKDSEIISTPNGSKIKAKVIEPELEEQSAVTPEANENILKLKLYRSLGVILDLENDQVLINRKNDGNIDILPLDNNLSDFYKTKYIWERLGK
chain 2: MASIDAFSDLERRMDGFQKDVAQVLARQQNHARQQLQQFQAEMRQLHNQHQHLIDELQRLATQRTALQQQIHAAQQATNTTREQWRSYHERESELSRRQSTLAAQSRELDSLLQQRGKECVQLRARWAAQSGNDAAEVALYERLLQLRVLPGASDVHDVRFVFGDDSRCWIEVAMHGDHVIGNSHPALDPKSRATLEHVLTVQGDLAAFLVVARDMLLASL
binding result [1]: binds
binding result [2]: binds
